Conditions: mouse, in vivo

## CNC(=O)c1cc(Oc2ccc(NC(=O)Nc3ccc(Cl)c(C(F)(F)F)c3)cc2)ccn1 [Sorafenib, sorafenib]
  Body weight gain, Day 0~Day 28: 4.23 ± 1.51
